According to PMC7161708 (Acta Pharmaceutica Sinica. B, 2019):

Test system: Aβ40/42
Assay: Aβ40/42 level in brain of APP/PS1 transgenic mice, ELISA
Format: in vivo
Conditions: oral, 100 days, compared with TV group

CC(=O)Oc1ccccc1C(=O)Nc1ncc([N+](=O)[O-])s1 [NTZ, nitazoxanide, reference compound]
Aβ40/42 level in cerebral cortex and hippocampus (ELISA): significantly reduced Aβ40/42 level
